Columns and labels:
[1] = molecular target: T1, CDK12 (Homo sapiens (Human), UniProt Q9NYV4); assay: CDK12 plate based target engagement assay in Jurkat cells; format: cell-based; settings: 6 hours
Description: Jurkat cells were treated with varying concentrations of the compound for 6 hours. The DMSO concentration was maintained at 0.1%. Cells were harvested and lysed. 200 μg of the lysate was incubated with 1 μM Bio-THZ531 in the presence of 1 mM DTT and incubated on a rocker at 4° C. overnight. 100 μL of this sample was added to pre-washed streptavidin coated plates and incubated at room temperature on a rocker for 2 hours. The plates were washed and incubated with CDK12 antibody for overnight at 4° C. Next day the plate was washed and incubated for 2 hours with HRP labelled anti rabbit secondary antibody. Bio-THZ531 bound CDK12 was determined using TMB substrate. The plates were read using the M3 spectrophotometer at […]. Percentage CDK12 occupancy with the test compound was calculated over untreated control. Occupancy 50 was calculated by fitting the dose response data to sigmoidal curve fitting equation using GraphPad Prism software V5.

Amino acid sequences for entries named in this document (tags omitted).
UniProt Q9NYV4, whole entry, looked up: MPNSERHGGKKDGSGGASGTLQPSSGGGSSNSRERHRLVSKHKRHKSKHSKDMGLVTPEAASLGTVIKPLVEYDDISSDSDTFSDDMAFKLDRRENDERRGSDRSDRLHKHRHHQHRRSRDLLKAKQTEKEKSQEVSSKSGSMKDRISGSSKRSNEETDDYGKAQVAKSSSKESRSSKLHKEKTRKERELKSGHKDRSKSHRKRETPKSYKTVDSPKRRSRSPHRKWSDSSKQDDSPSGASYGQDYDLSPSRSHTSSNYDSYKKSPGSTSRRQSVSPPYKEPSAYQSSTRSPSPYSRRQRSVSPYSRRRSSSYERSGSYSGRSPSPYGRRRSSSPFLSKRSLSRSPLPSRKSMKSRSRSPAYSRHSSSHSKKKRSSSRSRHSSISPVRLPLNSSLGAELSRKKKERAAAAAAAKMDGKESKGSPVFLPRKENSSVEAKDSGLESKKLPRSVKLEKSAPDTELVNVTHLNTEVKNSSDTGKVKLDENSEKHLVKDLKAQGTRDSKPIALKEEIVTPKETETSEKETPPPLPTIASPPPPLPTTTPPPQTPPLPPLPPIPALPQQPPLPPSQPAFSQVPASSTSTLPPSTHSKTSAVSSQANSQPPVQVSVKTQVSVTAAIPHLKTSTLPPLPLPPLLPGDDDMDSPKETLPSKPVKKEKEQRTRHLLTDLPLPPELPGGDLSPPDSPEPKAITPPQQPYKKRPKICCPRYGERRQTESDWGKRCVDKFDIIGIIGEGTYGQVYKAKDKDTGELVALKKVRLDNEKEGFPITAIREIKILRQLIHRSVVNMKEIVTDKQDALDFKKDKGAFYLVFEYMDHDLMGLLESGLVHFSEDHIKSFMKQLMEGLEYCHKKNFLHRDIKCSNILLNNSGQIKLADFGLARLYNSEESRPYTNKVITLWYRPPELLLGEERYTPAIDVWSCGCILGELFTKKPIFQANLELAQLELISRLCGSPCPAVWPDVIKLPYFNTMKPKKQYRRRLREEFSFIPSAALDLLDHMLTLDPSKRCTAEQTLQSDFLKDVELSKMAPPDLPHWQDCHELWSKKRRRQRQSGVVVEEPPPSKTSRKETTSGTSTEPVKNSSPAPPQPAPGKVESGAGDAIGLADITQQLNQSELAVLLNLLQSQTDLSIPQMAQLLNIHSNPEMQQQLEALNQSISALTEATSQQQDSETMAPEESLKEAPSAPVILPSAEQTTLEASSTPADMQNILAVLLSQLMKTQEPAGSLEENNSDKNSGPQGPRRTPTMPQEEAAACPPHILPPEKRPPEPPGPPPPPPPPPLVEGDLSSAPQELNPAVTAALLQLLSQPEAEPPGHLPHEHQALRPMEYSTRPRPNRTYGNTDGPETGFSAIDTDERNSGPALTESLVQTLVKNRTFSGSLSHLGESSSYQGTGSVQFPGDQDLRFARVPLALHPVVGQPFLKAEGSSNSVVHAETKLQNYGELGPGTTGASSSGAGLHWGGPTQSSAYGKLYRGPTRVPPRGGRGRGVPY
UniProt P50613, whole entry, looked up, species assumed: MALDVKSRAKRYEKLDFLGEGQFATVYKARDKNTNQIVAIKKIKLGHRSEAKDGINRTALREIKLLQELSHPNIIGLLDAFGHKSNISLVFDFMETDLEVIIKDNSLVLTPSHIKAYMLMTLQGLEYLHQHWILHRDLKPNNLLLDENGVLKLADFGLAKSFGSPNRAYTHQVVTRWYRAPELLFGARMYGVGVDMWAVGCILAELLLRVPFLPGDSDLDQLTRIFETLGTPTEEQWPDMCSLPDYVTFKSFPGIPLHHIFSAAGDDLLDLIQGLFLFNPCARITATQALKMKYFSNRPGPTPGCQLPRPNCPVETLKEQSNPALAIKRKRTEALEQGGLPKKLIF

[2] = molecular target: T1, CDK12; assay: Biochemical assay for CDK12 (Kd determination), kinase-tagged phage/qPCR competition binding
Description: Kinase-tagged T7 phage strains were grown in parallel in 24-well blocks in an E. coli host derived from the BL21 strain. E. coli were grown to log-phase and infected with T7 phage from a frozen stock (multiplicity of infection=0.4) and incubated with shaking at 32° C. until lysis (90-150 minutes). The lysates were centrifuged (6,000×g) and filtered (0.2 μm) to remove cell debris. The remaining kinases were produced in HEK-293 cells and subsequently tagged with DNA for qPCR detection. […] The liganded beads were blocked with excess biotin and washed with blocking buffer (SeaBlock (Pierce), 1% BSA, 0.05% Tween 20, 1 mM DTT) to remove unbound ligand and to reduce non-specific phage binding. […] Test compounds were prepared as 40× stocks in 100% DMSO and directly diluted into the assay. All reactions were performed in polypropylene 384-well plates in a final volume of 0.02 ml. […] The kinase concentration in the eluates was measured by qPCR.

[3] = molecular target: T1, CDK12; assay: Biochemical assay for CDK12 (IC50 determination), LANCE TR-FRET; settings: ATP 100 μM, 60 min pre-incubation
Description: The inhibitory activity of the test compounds was assessed by the LANCE TR-FRET assay, which detects the ATP-dependent phosphorylation of an ULight-4E-BP1 (Thr37/Thr46) substrate peptide (100 nM) by CDK12 (30 nM). Briefly, the enzyme reaction was run in reaction buffer (25 mM HEPES (pH 7.5), 10 mM MgCl2, 0.01% BSA, 0.01% Triton x, 1 mM DTT). The assay was performed in 384-well plate format. The end concentration of the ATP substrate was 100 μM, and that of the ULight-4E-BP1 (Thr37/Thr46) substrate peptide was 100 nM, and of CDK12 was 30 nM. Pre-incubation of the compound and enzyme was performed for 60 min at room temperature. After 60 min incubation at room temperature, the reaction was terminated by the addition of 40 mM EDTA and 0.5 nM Eu-labeled anti-phospho-eIF4E-binding protein (Thr37/46) antibody in LANCE detection buffer. Time-resolved fluorescence (excitation, 320 nm; emission donor, 615 nm; emission acceptor, 665 nm) was monitored by using 2030 multilabel reader Victor5 (PerkinElmer). The readout was calculated as (acceptor counts/donor counts)×1000. The IC50 values were derived by fitting a sigmoidal dose-response curve to a plot of assay readout over inhibitor concentration. All fits were computed with the program Prism 5.03 (Graph Pad Software, San Diego, Calif.).

[4] = molecular target: CDK7 (Homo sapiens (Human), UniProt P50613); assay: Biochemical assay for CDK7, LANCE TR-FRET; settings: ATP 1 mM/100 μM, 60 min pre-incubation; read-out: CDK 7 IC50
Description: The inhibitory activity of the test compounds was assessed by the LANCE TR-FRET assay, which detects the ATP-dependent phosphorylation of an ULight-myelin basic protein (MBP) substrate peptide (100 nM) by CDK7 (10 nM). Briefly, the enzyme reaction was run in reaction buffer (20 mM HEPES (pH 7.5), 10 mM MgCl2, 0.01% Triton x, 100 μM Sodium Orthovanadate, 1 mM DTT). The assay was performed in 384-well plate. The end concentration of the ATP substrate was 1 mM/100 μM, and that of the ULight-MBP substrate peptide was 100 nM, and of CDK7 was 10 nM. Pre-incubation of the compound and enzyme was performed for 60 min at room temperature. After 60 min incubation at room temperature, the reaction was terminated by the addition of 40 mM EDTA and 1 nM Eu-labeled anti-phospho-MBP-binding protein antibody in the buffer. […] The readout was calculated as (acceptor counts/donor counts)×1000. The IC50 values were derived by fitting a sigmoidal dose-response curve to a plot of assay readout over inhibitor concentration.

Structure (SMILES): C=CC(=O)N1CC=C(c2ccc([C@H](C)C(=O)Nc3cc(C4CC4)[nH]n3)cc2)CC1 [Compound 2, (S)-2-(4-(1-acryloyl-1,2,3,6-tetrahydropyridin-4-yl)phenyl)-N-(5-cyclopropyl-1H-pyrazol-3-yl)propanamide]
- CDK12 Target Occupancy (Tocc50) μM in Jurkat cells [1]: 0.014 µM
- Kd [2]: 0.025 to 0.1 µM
- IC50 [3]: 0.06 µM
- IC50 [4]: 2.29 µM

— US10894786B2, “Substituted pyrazole derivatives as selective CDK12/13 inhibitors” (Aurigene Discovery Technologies Limited, priority 2018, dated 2021)
